Measured values as given in paper PMC7765948, “Spadin Modulates Astrocytic Passive Conductance via Inhibition of TWIK-1/TREK-1 Heterodimeric Channels” (International Journal of Molecular Sciences, 2020).

Experiments:
[1] = system: TREK-2; conditions: cited from earlier work
From the text: (§1) It has been reported that spadin is highly specific for the TREK-1 channel, and that other TREK family members, such as TREK-2 and TRAAK homodimer channels, are not sensitive to spadin [36, 37]. […] Therefore, we proposed two possibilities to explain how the TWIK-1 channel is affected by spadin in astrocytes. First, the TWIK-1 channel may be regulated by spadin in a direct manner, similar to the TREK-1 channel. […] The activity of TWIK-1 homodimeric channels was not modulated by spadin, but concatenated TWIK-1-TREK-1 heterodimeric channels were inhibited (Figure 5). Since K2P heterodimeric channels are known to be regulated by regulators specific only for single subunit isoforms, even if the TWIK ...

[2] = system: TREK-1/TREK-2 heterodimeric channels; conditions: cited from earlier work
From the text: as §1

[3] = system: TRAAK; conditions: cited from earlier work
From the text: as §1

[4] = system: K^+ currents in cultured astrocytes; experiment: Whole-cell patch clamp of K+ currents (ramp −150 to +50 mV) in cultured astrocytes; type: cell-based, mouse (C57BL/6)
Procedure: Primary cortical astrocytes were prepared from one day-old male and female C57BL/6 mouse pups culture astrocytes, P1 C57BL/6 J mouse pups. The cerebral cortex was dissected free of adherent meninges, minced and dissociated into single-cell suspension by trituration through a pipette. All experimental procedures described were performed in accordance with the guidelines of Korea University (Seoul, Korea). Dissociated cells were plated onto either 12 mm glass coverslips or six-well plates coated with 0.1 mg/mL Poly-D-Lysine (PDL). Cells were grown in Dulbecco’s modified Eagle’s medium (DMEM, ThermoFisher, Waltham MA, USA) supplemented with 10% heat-inactivated fetal bovine serum, 10% heat-inactivated horse serum, and penicillin–streptomycin. Cultures were maintained at 37 °C in a humidified 5% CO2 incubator. On the third day of culture, cells were washed by repeated pipetting and the media was replaced to remove debris and other floating cells. On the next day (fourth day of culture), the cells were replaced onto glass coverslips (1 × 104 per coverslip) coated with 0.1 mg/mL PDL. […]
Cultured astrocytes were plated onto coverslips for electrophysiological experiments. […] Whole-cell currents were recorded using a patch clamp amplifier (Axopatch 700B, Axon Instruments, Union City, CA, USA). Current–voltage relations were measured by applying ramped pulses (from −150 mV to +50 mV over 1000-ms) from a holding potential of −60 mV. […] Currents were analyzed with Clampfit software (Axon Instruments, Union City, CA, USA). […] Whole-cell currents were recorded after 2 min when spadin-contained bath solutions were exchanged. […]
All data are presented as means ± standard error of the mean (s.e.m). The significance of data for comparison was assessed by Student’s t-test (paired t-test) or one-way ANOVA followed by Turkey’s post hoc test, and significance levels are given as: n.s: not significant, * p < 0.05, ** p < 0.01, *** p < 0.001, and **** p < 0.0001. […]

[5] = system: animal behavioral models of depression; conditions: cited from earlier work
From the text: It is well known that TREK-1 activity is modulated by multiple signals such as mechanostretching, heat, pH changes, polyunsaturated fatty acids, and Gq or Gs-induced phosphorylation. […] However, in the present study, we clearly demonstrat ...

In the case of `CC[C@H](C)[C@H](NC(=O)[C@@H]1CCCN1C(=O)CNC(=O)[C@H](CO)NC(=O)[C@H](Cc1c[nH]c2ccccc12)NC(=O)[C@H](CCCNC(=N)N)NC(=O)[C@@H]1CCCN1C(=O)[C@H](CC(C)C)NC(=O)[C@@H]1CCCN1C(=O)[C@H](C)NC(=O)[C@@H](N)Cc1ccc(O)cc1)C(=O)NCC(=O)N[C@H](C(=O)N[C@@H](CO)C(=O)N[C@@H](Cc1c[nH]c2ccccc12)C(=O)NCC(=O)N[C@@H](CC(C)C)C(=O)N[C@@H](CCCNC(=N)N)C(=O)O)C(C)C` [spadin], the “sensitivity of TREK-2 homodimer channels” value [1] is given as “not sensitive”, the “effect on TREK-2” value ([1]; heterologous systems) is given as “does not affect” and the “acid-induced activity of TREK-1/TREK-2 tandem heterodimeric channels” value ([2]; acid-induced) is given as “reduces acid-induced activity”. For the same compound, the “inhibition of TREK-1/TREK-2 heterodimeric channels” value [2] was “can also inhibit”, the “sensitivity of TRAAK homodimer channels” value [3] was “not sensitive” and the “effect on TRAAK” value ([3]; heterologous systems) was “does not affect”. For the same compound, the “outward and inward currents of astrocytes” value ([4]; cultured astrocytes, series of spadin concentrations, +50 mV and −150 mV) was “gradually reduced as spadin concentration increased”, the “reversal membrane potential (RMP) after treatment” value ([4]; cultured astrocytes, before treatment –78.4 ± 1.7 mV, concentration dependent, mean ± s.e.m.) was −69.9 ± 2.3 mV and the IC50 ([4]; cultured mouse cortical astrocytes, outward currents at +50 mV, ramp from −150 to +50 mV, Hill fit, bath pH 7.4, 20–22 °C, recorded 2 min after solution exchange, read-out: IC50 on astrocytic conductance) was 54.6 nM. For the same compound, the depression phenotypes ([5]; animal behavioral models) was “alleviates depression phenotypes” and the antidepressant effects ([5]; mice treated with spadin) was “antidepressant effects have been reported”.
